One substance from patent US12415803B2, “Fused imidazopyridines as reversible inhibitors of Brutons Tyrosine Kinase (BTK)” (Merck Patent GmbH, priority 2018, dated 2025) can be followed below.

By UniProt entry, the sequences of proteins in these tests, tags left out. Where a name states a change or a piece, a line headed by the entry shows the natural chain unless it says otherwise.
UniProt Q06187: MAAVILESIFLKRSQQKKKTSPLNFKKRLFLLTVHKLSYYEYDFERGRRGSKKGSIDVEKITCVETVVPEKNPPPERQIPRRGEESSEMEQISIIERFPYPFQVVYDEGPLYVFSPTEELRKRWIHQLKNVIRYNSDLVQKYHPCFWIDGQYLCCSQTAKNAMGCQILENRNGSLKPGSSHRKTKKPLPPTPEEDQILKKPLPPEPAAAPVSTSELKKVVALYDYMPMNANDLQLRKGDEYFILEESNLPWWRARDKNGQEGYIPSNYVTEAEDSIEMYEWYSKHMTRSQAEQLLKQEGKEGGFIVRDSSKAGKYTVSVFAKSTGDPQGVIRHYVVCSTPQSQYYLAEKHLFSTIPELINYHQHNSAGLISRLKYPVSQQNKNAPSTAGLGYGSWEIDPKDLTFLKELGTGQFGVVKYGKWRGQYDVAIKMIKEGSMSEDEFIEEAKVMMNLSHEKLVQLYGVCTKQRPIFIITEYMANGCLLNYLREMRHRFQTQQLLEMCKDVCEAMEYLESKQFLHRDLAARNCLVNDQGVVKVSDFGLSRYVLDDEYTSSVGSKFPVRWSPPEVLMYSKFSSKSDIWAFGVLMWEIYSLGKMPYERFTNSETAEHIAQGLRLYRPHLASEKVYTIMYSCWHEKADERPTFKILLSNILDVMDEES

One experiment concerns the target full-length human BTK (Homo sapiens (Human), UniProt Q06187). The experiment is described as follows: BTK IC50 Enzyme Assay (microfluidic off-chip mobility shift kinase assay).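 Further: Read-out separates phosphorylated peptide product from substrate by their charge-to-mass difference, with IC50 fitted from log inhibitor concentration against percent enzyme activity.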 The experiment is classed as biochemical.
The target of experiment [1] is T1, Btk (Homo sapiens (Human), UniProt Q06187). The experiment can be described thus: Time Dependent Human Whole Blood IC50 Assay. It is filed as cell-based. The note with it: read-out: Assay C (IC50).
For experiment [2], the target named is T1, Btk. The experiment can be described thus: Btk PBMC IC50 Cell Assay (anti-IgM-induced CD69 expression on B cells).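 Further: freshly isolated human PBMCs, IC50 from concentration-response of the share of CD19+ cells expressing CD69 after anti-IgM BCR stimulation.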 It is filed as cell-based.

The IC50 is the concentration needed to halve the response being measured. In the case of “5-tert-butyl-N-(2-{2-[3,5-dimethyl-1-(propan-2-yl)-1H-pyrazol-4-yl]-3H-imidazo[4,5-b]pyridin-7-yl}-6,7,8,9-tetrahydro-5H-benzo[7]annulen-5-yl)-1,3,4-oxadiazole-2-carboxamide [Compound 86]”, the IC50 at full-length human BTK is below 1 nM; on Btk [1], 10 to 100 nM; against Btk [2], 1 to 10 nM.
